Target: Cyclin-dependent kinase 2 (Homo sapiens, UniProt P24941)

COc1nc(N)nc2nc[nH]c12 [METHYLGUANINE]
IC50: > 100 µM

Reference: ChEMBL document CHEMBL4004788, “Cyclin-Dependent Kinase (CDK) Inhibitors: Structure-Activity Relationships and Insights into the CDK-2 Selectivity of 6-Substituted 2-Arylaminopurines” (J Med Chem, 2017)
